Laboratory results published in publication PMC4510133, “Identification of Interactions between Abscisic Acid and Ribulose-1,5-Bisphosphate Carboxylase/Oxygenase” (PLoS ONE, 2015).
Values joined by “and” are separate entries in the source; they are usually repeats but may differ in a detail not shown here. Equal values may be shown once.

Tests used:
spinach Rubisco [1] = biological target: T1, spinach Rubisco (Spinacia oleracea, UniProt P00875); assay: Rubisco catalytic (carboxylation) activity, coupled spectrophotometric assay with pre-activated enzyme; format: biochemical; parameters: Commercially available Rubisco from spinach (Sigma-Aldrich); catalogue # R8000; purchased Sigma-Aldrich R8000; details: 10-1200 μM RuBP, non-competitive, read-out: Ki for inhibition of Rubisco catalysis (Dixon analysis)
Method: (§1) Commercially available Rubisco from spinach (Sigma-Aldrich; catalogue # R8000; S1 Fig; specific activity 0.05 units / mg) was dissolved in a buffer containing 15 mM MgCl2 and 25 mM NaHCO3 at pH 8.0 for activation. Each assay (total volume, 1.0 mL) contained 50 mM Bicine (pH 8.0), 15 mM MgCl2, 10 mM NaCl, 5 mm DTT, 5 mM phosphocreatine, 5 mM ATP, 5 mM phosphoenolpyruvate, and 25 mM NaHCO3. This mixture was prepared before each set of experiments. Five minutes before initiating the reaction with the addition of activated Rubisco, the following were added: RuBP at the indicated concentrations), 0.4 mM NADH, 20 units mL-^-1 of glyceraldehyde-3-phosphate dehydrogenase, 20 units mL-^-1 of 3-phosphoglycerate kinase, and 2 units mL^-1 of creatine phosphokinase. Following the addition of activated Rubisco to a final concentration of 0.3 mg mL^-1, the NADH concentration was measured spectrophotometrically (λ = 340 nm) at 5 s intervals for 5 min. Absorbance values were converted to NADH concentrations using an extinction coefficient of 6.22 mM^-1. Reaction rates were evaluated from the slope of absorbance vs. time curves and plotted against concentration of RuBP. […] The non-activated Rubisco was then pre-incubated on ice for at least 10 minutes with or without the indicated concentrations of (+)-ABA, and the reactions initiated and monitored as described above. […]

spinach Rubisco [2] = biological target: T1, spinach Rubisco; assay: Rubisco activation (carbamylation), initial rate analysis with non-activated enzyme; format: biochemical; parameters: Commercially available Rubisco from spinach (Sigma-Aldrich); catalogue # R8000; purchased Sigma-Aldrich R8000; details: non-activated Rubisco pre-incubated with (+)-ABA; 1, 7, 20 mM NaHCO3; at least partially competitive; read-out: Ki for inhibition of Rubisco activation (Dixon analysis)
Method: as §1

spinach Rubisco [3] = biological target: T1, spinach Rubisco; assay: Isothermal titration calorimetry; details: read-out: Kd by ITC; 20°C, 10 mM HEPES pH 7.9, Rubisco 39.42 μM, Independent binding model

Substance: Abscisic acid [(+)-ABA]
- Ki (spinach Rubisco [1]): 2100 µM and ~2100 µM
- Ki (spinach Rubisco [2]): ~130 µM and 130 µM
- Kd (spinach Rubisco [3]): 11.1 µM
